tested on: glycine receptor (GlyR); experiment: Glycine-induced chloride current (IGly), whole-cell patch-clamp in isolated pyramidal neurons of the rat hippocampus; format: cell-based
Procedure: All experiments were conducted per the requirements of the Ministry of Public Health of the Russian Federation and were consistent with the EU directive for Use of Experimental Animals of the European Community. […] The cells were isolated from transverse hippocampal slices as described in detail elsewhere ([Vorobjev, 1991]). Briefly, the slices (200–500 μm) of Wistar rats (11–14 days of age) hippocampus or cerebellum were incubated at room temperature for at least 2 h in a solution containing the following components (in mM): 124 NaCl, 3 KCl, 2 CaCl2, 2 MgSO4, 25 NaHCO3, 1.3 NaH2PO4, 10 D-glucose, pH 7.4. The saline was continuously stirred and bubbled with carbogen (95% 0_2 + 5% CO2). Single pyramidal neurons from the hippocampal CA3 area or Purkinje cells from sagittal slices of the cerebellum were isolated by a vibrating fused glass pipette with a spherical tip.
Isolated neurons were patch clamped and then lifted into the outflow of the control bath solution. […] The substances were applied through glass capillary, 0.1 mm in diameter, which could be rapidly displaced laterally ([Vorobjev et al., 1996]). A fast perfusion technique allows a complete exchange of external solution surrounding a neuron within 20 ms. […] Transmembrane currents were recorded using a conventional patch-clamp technique in the whole-cell configuration. […] The solution in the recording pipette contained the following (in mM): 40 CsF, 100 CsCl, 0.5 CaCl2, 5 EGTA, 3 MgCl2, 4 NaATP, 5 HEPES, pH 7.3. […] Transmembrane currents were filtered at 3 kHz, stored and analyzed with IBM-PC computer, using homemade software.
Statistical analysis was performed with the help of Prism Graphpad software. […] The IC50 values for steroids inhibition of the IGly and IGABA were determined using the equation: Y = 1 – [max/(1 + (IC50/C)^n)], where max is the maximum inhibition attainable, C is the concentration of steroid, IC50 is the half-maximal inhibitory concentration and n is the slope factor (Hill coefficient). […]

Row | Compound | Selectivity IGly vs. IGABA in words
1 | C[C@]12CC[C@H]3[C@@H](CCC4=CC(=O)CC[C@@]43C)[C@@H]1CC[C@H]2O [Compound 5, 17α-Hydroxyandrost-4-en-3-one] | selective modulators of IGly
2 | C[C@]12CCC(=O)C[C@@H]1CC[C@@H]1[C@@H]2CC[C@]2(C)C(=O)CC[C@@H]12 [Compound 6, 5α-Androstane-3,17-dione] | selective modulators of IGly
3 | C[C@]12CCC(=O)C[C@H]1CC[C@@H]1[C@@H]2CC[C@]2(C)C(=O)CC[C@@H]12 [Compound 9, 5β-Androstane-3,17-dione] | selective modulators of IGly

Reference: article PMC7098970, “Neurosteroids as Selective Inhibitors of Glycine Receptor Activity: Structure-Activity Relationship Study on Endogenous Androstanes and Androstenes” (Frontiers in Molecular Neuroscience, 2020)
